Assays:
AChE [1] = biological target: AChE (Cavia porcellus, UniProt D3YE96); experiment: AChE activity assay, guinea pig blood, diaphragm and brain after DFP
[2] = Pro-2-PAM conversion (biotransformation to 2-PAM)
[3] = system: DFP induced neuropathology; experiment: Guinea pig brain neuropathology (H&E, fluoro-jade) after DFP; conditions: DFP then oxime, 24 hr post-exposure
brain AChE = conditions: Rump et al. 1978; cited from earlier work
behavior effects of DFP = conditions: Kenley et al. 1982; cited from earlier work
DFP induced seizures = experiment: DFP guinea pig radiotelemetry model (standard military exposure paradigm)
[4] = Solubility and solution stability; conditions: for solubility in acidic solution: slightly acidic solution, e.g. 0.9% sodium chloride, pH 5
paraoxon poisoning = conditions: Boskovic et al. 1980; cited from earlier work
[5] = system: NMDA toxicity in cell culture
[6] = system: DFP toxicity in cell culture
[7] = system: seizures induced by pilocarpine; conditions: pretreatment, rat seizure models; cited from earlier work
AChE [8] = biological target: T1, AChE (Rattus norvegicus, UniProt P37136); experiment: Blood and brain AChE activity of NMDA-treated rats; conditions: pre- and post-exposure treatment
[9] = system: DFP induced SE causing seizure; experiment: DFP rat radiotelemetry model
NMDA-induced seizures = experiment: NMDA SE rat model (radiotelemetry)
AChE [10] = conditions: cited from earlier work
AChE [11] = biological target: T1, AChE; experiment: Blood AChE activity of DFP-exposed rats; conditions: pre- and post-exposure treatment

Sequences of proteins named here, by UniProt entry; tags and fusion partners are left off. A change or cut given only in a name is not applied to a line headed by its entry.
UniProt P37136: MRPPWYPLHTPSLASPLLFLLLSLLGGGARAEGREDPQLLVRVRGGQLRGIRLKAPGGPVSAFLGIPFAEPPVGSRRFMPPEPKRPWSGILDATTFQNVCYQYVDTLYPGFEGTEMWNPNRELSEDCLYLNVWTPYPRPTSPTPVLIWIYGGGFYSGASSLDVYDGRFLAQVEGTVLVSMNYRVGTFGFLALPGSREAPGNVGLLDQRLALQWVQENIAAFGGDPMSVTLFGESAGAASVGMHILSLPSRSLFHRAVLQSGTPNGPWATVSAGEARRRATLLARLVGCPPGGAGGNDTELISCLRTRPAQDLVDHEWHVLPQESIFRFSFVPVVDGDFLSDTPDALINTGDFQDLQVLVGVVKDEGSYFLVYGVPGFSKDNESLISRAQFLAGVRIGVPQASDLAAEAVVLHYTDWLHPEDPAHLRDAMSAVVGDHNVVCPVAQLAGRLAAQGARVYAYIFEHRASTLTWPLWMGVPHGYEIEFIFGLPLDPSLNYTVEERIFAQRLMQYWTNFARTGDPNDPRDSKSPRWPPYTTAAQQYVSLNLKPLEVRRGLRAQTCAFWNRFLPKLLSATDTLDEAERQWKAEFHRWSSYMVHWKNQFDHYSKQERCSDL

N-methyl-1,6-dihydropyridine-2-carbaldoxime
AChE activities in blood and diaphragm (AChE [1]; 2-PAM vs Pro-2-PAM treated animals, 1.5 hr post treatment): similar
average increase in frontal cortex AChE activity vs DFP only treated animals (AChE [1]; 24 hr, therapy between 1 and 40 min post-DFP exposure, p≦0.05): > 2 fold
brain AChE reactivation (AChE [1]; administered i.m. after OP exposure): resulted in brain AChE reactivation
time post-OP exposure at which treatment still reactivated DFP-inhibited brain AChE (AChE [1]; frontal cortex, 24 hr): up to 40 min
brain regional AChE activity, Pro-2-PAM vs 2-PAM treated animals (AChE [1]; six of eight brain regions, 1.5 hr after DFP exposure, p≦0.05): at least 2 fold
biotransformation to 2-PAM ([2]; NAD/P intracellular conversion): incomplete after 30 min
biotransformation to 2-PAM ([2]; physiological doses of riboflavin): proceeds to completion within minutes
hippocampus pyramidal layer, fluoro-jade stain, 40× [3]: lacked dead cells
piriform cortex neurons, H&E stain, 40× [3]: lack the signs of neuronal necrosis or degeneration
reactivation of brain AChE (brain AChE): reactivated brain AChE in amounts greater than 2-PAM
reversal of the behavior effects of DFP (behavior effects of DFP): do not reverse the behavior effects of DFP
DFP induced hypothermia, bradycardia and decreased activity (DFP induced seizures; 24 hr recording): abrogated DFP induced hypothermia and bradycardia and restored activity
seizures, SE causing seizures and SE in DFP-exposed animals (DFP induced seizures; guinea pig, overall statement): significantly suppressed and then eliminated seizure activity
seizure activity (EEG, 24 hr) (DFP induced seizures; oxime 13 mg/kg i.m. 1 min after DFP 8 mg/kg s.c., guinea pig): prevented seizure activity
seizure activity (EEG, 24 hr) (DFP induced seizures; oxime injected 15 min after DFP, guinea pig): abrogated seizure activity
stability in solution [4]: relatively unstable in solution for an extended period
solubility in acidic solution [4]: readily dissolved
water solubility ([4]; stored powder): readily water soluble powder
effectiveness against paraoxon poisoning (paraoxon poisoning): less effective than 2-PAM

[+]dimethylhuperzine
protective efficacy against NMDA toxicity [5]: protective efficacy
protective efficacy against DFP toxicity [6]: protective efficacy

9-amino-13-ethylidene-11-methyl-4-azatricyclo[7.3.1.0]trideca-3(8),6,11-trien-5-one [+HupA]
seizures induced by pilocarpine [7]: prevents seizures
blood and brain AChE activities vs rats receiving NMDA alone (AChE [8]): no significant difference
survival ([9]; 3 mg/kg 10 min after DFP 4 mg/kg s.c., n=6): 83%
survival ([9]; 3 mg/kg i.m. 1 min after DFP 4 mg/kg s.c., n=8): 87.5%
survival ([9]; 3 mg/kg i.m. 5 min after DFP 4 mg/kg s.c., n=24): 96%
survival ([9]; 3 mg/kg i.m. 30 min before DFP 4 mg/kg s.c., 24 hr, n=6): 100%
body temperature, average after recovery ([9]; 1 min post-treatment): 35 °C
time to progression to SE after DFP injection ([9]; 1 min post-treatment): about 48 min
time to signs of SE causing seizures after DFP injection ([9]; 1 min post-treatment): about 36 min
physical activity ([9]; 1 min post-treatment, 2 hr after DFP): significantly decreased
heart rate (average) ([9]; 1 min post-treatment, remainder of experiment): 425 bpm
body temperature after drop ([9]; 1 min post-treatment, three hr after DFP, dropped from 37° C.): 33 °C
heart rate (average) ([9]; 1 min post-treatment, within 3 hr of DFP, increased from 400 bpm): 450 bpm
duration of strong seizure activity ([9]; 5 min post-treatment): 45 min
time to strong seizure activity after DFP exposure ([9]; 5 min post-treatment): about 8 min
body temperature, low ([9]; 5 min post-treatment, 13 hr after DFP): 31 °C
physical activity ([9]; 5 min post-treatment, after quiet period 3.5-9 hr): resumed after 9 hr to normal levels
body temperature, peak ([9]; 5 min post-treatment, end of 24 hr recording): 35 °C
heart rate (average) ([9]; 5 min post-treatment, remainder of experiment): 400 bpm
heart rate (average) ([9]; 5 min post-treatment, within 1 hr of DFP, increased from 450 bpm): 500 bpm
duration of strong seizure activity ([9]; 10 min post-treatment): 180 min
time to strong seizure activity after DFP exposure ([9]; 10 min post-treatment): about 8 min
heart rate (average) ([9]; 10 min post-treatment, 2 hr later): 300 bpm
physical activity ([9]; 10 min post-treatment, 4 hr after DFP): drops significantly
heart rate (average) ([9]; 10 min post-treatment, 8 hr later, remainder of experiment): 250 bpm
body temperature, low ([9]; 10 min post-treatment, 17.5 hr after DFP): 30.5 °C
heart rate (average) ([9]; 10 min post-treatment, within 1 hr of DFP, increased from 400 bpm): 500 bpm
body temperature, low ([9]; 30 min pre-treatment, 3.5 hr after DFP): 32 °C
physical activity ([9]; 30 min pre-treatment, 24 hr): remained consistently active
body temperature, average ([9]; 30 min pre-treatment, remainder of experiment): 35 °C
heart rate (average) ([9]; 30 min pre-treatment, within 3.5 hr of DFP injection, dropped from 500 bpm): 400 bpm
protection against SE causing seizures and SE induced by NMDA (NMDA-induced seizures; 1, 2 and 3 mg/kg i.m. 30 min prior to 20 μg/kg NMDA i.c.v., rat): protected against SE causing seizures and SE
survival of NMDA-administered animals (NMDA-induced seizures; +HupA treatment pre- and post-exposure to NMDA): increased survival
physical activity (NMDA-induced seizures; post-NMDA exposure treatment with 3 mg/kg): not affected
body temperature (NMDA-induced seizures; post-exposure treatment, 24 hr recording): normal baseline body temperature
physical activity (NMDA-induced seizures; pre-treatment with 3 mg/kg, then NMDA): normal physical activity
body temperature (NMDA-induced seizures; pre-treatment, 24 hr monitoring): remained within the normal temperature range
heart rate (NMDA-induced seizures; pre-treatment, then NMDA): 300-500 bpm
cardiovascular toxicity (NMDA-induced seizures; rat, in vivo): does not have any observable cardiovascular toxicity
side-effects associated with NMDA ion-channel antagonists (behavior decrements) (NMDA-induced seizures; rat, in vivo): devoid of the side-effects such as behavior decrements
solubility in acidic solution [4]: soluble in acidic solution
AChE binding activity, fold lower than −HupA (AChE [10]): 100 to 1000 fold
blood AChE activity vs rats which received no treatment (AChE [11]): significant increase

9-amino-13-ethylidene-11-methyl-4-azatricyclo[7.3.1.0]trideca-3(8),6,11-trien-5-one [−HupA]
seizures induced by pilocarpine [7]: does not

Source: patent US20110230473A1, “Methods and Compositions for Treating Status Epilepticus and Seizures Causing Status Epilepticus” (published 2011)
